Reference: EP1383793B1 (priority 2000, dated 2001)
Read-outs that look alike come from different tables or passages of the source.

Chains of the proteins cited; added tags and fusions are not shown. Residues count along the entry.
UniProt P08069, 741-1367 limits assumed: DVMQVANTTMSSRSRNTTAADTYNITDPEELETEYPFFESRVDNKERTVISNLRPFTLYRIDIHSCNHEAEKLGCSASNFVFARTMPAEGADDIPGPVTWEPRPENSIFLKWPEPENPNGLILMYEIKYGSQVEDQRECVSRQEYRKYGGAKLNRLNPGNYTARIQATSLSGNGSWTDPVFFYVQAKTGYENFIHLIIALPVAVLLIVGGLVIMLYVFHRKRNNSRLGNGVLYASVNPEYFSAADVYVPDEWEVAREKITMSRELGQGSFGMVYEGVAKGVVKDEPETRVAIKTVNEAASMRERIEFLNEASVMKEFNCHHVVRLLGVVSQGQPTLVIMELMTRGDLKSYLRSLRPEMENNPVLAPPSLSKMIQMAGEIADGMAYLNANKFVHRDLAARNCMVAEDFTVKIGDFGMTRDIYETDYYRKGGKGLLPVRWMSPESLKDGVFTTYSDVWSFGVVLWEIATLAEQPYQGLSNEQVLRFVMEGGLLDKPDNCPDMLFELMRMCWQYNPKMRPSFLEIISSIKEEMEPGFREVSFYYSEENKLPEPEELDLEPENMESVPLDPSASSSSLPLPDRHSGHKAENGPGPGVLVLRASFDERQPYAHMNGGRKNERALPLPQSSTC
UniProt P08069, 31-736 limits assumed: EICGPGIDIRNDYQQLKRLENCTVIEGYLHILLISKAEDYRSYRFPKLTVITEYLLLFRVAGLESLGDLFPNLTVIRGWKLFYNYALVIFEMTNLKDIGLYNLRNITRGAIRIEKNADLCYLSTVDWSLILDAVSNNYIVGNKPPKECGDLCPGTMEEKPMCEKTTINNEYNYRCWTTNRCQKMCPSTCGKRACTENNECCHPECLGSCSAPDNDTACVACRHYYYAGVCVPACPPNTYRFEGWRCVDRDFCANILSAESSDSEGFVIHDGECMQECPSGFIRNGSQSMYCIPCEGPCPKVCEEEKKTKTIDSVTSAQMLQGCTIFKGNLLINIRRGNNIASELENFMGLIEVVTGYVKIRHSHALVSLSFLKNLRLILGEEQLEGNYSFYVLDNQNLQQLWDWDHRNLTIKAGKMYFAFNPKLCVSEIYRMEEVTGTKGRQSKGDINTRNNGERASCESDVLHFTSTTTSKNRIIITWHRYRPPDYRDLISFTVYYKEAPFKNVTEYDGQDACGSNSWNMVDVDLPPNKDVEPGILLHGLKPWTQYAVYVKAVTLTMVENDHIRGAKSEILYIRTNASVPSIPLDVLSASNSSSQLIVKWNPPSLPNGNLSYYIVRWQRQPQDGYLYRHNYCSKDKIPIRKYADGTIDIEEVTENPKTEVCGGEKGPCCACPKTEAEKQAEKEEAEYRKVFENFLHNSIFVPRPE
UniProt P08069, 741-935 limits assumed: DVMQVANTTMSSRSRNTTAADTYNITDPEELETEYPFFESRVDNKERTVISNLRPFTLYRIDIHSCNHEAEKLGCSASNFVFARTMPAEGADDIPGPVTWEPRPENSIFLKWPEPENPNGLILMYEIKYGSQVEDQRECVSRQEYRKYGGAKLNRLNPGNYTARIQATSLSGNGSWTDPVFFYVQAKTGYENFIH
UniProt P06213, 28-758 limits assumed: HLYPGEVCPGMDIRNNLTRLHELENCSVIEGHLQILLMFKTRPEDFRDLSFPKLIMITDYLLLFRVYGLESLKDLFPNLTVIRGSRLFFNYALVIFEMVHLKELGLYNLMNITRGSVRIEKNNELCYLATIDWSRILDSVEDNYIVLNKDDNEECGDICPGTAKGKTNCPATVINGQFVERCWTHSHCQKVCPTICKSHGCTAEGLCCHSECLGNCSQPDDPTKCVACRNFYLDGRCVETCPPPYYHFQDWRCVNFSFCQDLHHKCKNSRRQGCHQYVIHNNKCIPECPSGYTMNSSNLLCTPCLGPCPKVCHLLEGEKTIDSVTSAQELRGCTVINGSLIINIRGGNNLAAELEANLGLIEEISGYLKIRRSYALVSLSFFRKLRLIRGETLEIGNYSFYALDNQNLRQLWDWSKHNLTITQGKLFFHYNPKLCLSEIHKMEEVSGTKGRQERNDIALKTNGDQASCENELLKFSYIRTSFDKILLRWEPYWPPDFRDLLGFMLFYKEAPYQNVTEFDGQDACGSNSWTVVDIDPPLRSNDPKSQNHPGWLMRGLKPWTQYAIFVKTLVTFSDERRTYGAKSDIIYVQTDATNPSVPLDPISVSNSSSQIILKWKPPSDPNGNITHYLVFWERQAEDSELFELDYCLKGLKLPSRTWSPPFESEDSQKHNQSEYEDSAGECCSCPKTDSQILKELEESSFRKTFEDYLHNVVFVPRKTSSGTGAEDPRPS
UniProt P06213, 763-1382 limits assumed: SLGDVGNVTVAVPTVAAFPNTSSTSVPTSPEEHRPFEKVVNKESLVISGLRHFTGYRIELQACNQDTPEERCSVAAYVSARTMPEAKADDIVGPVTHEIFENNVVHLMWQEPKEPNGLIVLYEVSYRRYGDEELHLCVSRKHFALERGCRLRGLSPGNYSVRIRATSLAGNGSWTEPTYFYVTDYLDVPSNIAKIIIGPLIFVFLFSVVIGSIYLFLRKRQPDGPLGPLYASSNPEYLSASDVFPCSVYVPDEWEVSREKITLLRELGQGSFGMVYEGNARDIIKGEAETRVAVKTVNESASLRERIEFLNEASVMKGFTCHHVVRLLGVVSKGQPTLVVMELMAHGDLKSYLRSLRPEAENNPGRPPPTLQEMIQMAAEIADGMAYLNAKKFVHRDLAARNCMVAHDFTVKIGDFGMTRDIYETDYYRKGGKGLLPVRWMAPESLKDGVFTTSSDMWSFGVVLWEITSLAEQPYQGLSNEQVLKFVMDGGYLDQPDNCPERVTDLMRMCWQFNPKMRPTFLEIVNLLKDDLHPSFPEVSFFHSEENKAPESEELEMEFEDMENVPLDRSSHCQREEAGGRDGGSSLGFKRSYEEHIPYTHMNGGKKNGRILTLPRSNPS
UniProt P06213, 763-956 limits assumed: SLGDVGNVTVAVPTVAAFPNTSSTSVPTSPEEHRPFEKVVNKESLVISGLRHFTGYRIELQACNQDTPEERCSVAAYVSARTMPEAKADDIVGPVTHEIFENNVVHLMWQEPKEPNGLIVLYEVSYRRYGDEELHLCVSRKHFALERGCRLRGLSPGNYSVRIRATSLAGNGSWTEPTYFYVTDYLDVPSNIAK

Columns and labels:
[1] = biological target: human IGF-1 receptor (HIGF-1R) (Homo sapiens, UniProt P08069); assay: 125I-IGF-1 competition binding assay on solubilised purified receptor; details: read-out: Kd (µM) HIGF1R
IGF-1R = biological target: T1, IGF-1R (Homo sapiens, UniProt P08069); assay: Phage ELISA, competition of phage binding by soluble synthetic peptides, IGF-1R-coated wells; details: read-out: Kd (Hill plot), IGF Receptor
T1 construct: Soluble IGF-1R was obtained from R&D Systems; purchased R&D Systems 391-GR/CF

[2] = biological target: T2, human insulin receptor (HIR) (Homo sapiens, UniProt P06213); assay: 125I-insulin competition binding assay on solubilised purified receptor; details: read-out: Kd (µM) HIR
T2 construct: made in house

IR = biological target: T3, IR (Homo sapiens, UniProt P06213); assay: Phage ELISA, competition of phage binding by soluble synthetic peptides, IR-coated wells; details: read-out: Kd (Hill plot); Insulin Receptor, 20D3 Phage
T3 construct: composed of the extracellular domains of both the α and β chains of the natural receptor; made in house; background b13 names human embryonic kidney 293 cells for the Bass et al. construct

**Q.** For FHENFYDWFVRQVSKK [Clone H2C], which Kd [1] is on record?
**A.** 6.1 µM

**Q.** And the Kd (IGF-1R; 20D3 Phage)?
**A.** 5.05 µM

**Q.** And the Kd (IGF-1R; H2 Phage)?
**A.** 3.72 µM

**Q.** And the Kd [2]?
**A.** 0.7 µM

**Q.** And the Kd (IR)?
**A.** 0.564 µM
